Data as given in PubChem BioAssay AID652105 (National Center for Advancing Translational Sciences (NCATS), 2013).
This is a selection; strong and weak results do not stand in their true shares. Some tests of the compounds listed are not included; inactive here does not mean inactive elsewhere. Active and inactive are the calls of the source. How the source made its calls: active means max response of -50% or lower; inconclusive means between -30% and -50%; inactive means -30% or higher.

Chains of the proteins cited; added tags and fusions are not shown.
UniProt P48426, whole entry: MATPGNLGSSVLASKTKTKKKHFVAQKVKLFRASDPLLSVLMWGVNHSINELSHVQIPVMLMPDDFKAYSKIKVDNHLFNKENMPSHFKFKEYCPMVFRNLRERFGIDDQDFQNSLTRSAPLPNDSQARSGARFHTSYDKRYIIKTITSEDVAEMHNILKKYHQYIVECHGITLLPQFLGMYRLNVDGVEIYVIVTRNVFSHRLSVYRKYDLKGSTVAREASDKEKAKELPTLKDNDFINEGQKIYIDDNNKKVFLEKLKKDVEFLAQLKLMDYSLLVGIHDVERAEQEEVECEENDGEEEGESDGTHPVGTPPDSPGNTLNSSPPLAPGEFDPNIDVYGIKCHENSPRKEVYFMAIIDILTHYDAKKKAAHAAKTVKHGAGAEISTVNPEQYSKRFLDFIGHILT

molecular target: Phosphatidylinositol 5-phosphate 4-kinase type-2 alpha (Homo sapiens) (UniProt P48426); test: qHTS for Inhibitors of phosphatidylinositol 5-phosphate 4-kinase (PI5P4K); details: PI5P4Kalpha enzyme, ADP-Glo luminescence, 60 min; active compounds read low; further: value at the top dose of about 77 µM
From the text: In addition to finding PI5P, we discovered the type II phosphatidylinositol 5-phosphate 4-kinase (PI5P4K) family (alpha, beta, gamma isoforms) that catalyze the conversion of PI5P to PI(4,5)P2. Alternatively, PI(4,5)P2 can also be synthesized through phosphatidylinositol-4-phosphate (PI4P) by the type I phosphatidylinositol 4-phosphate 5-kinases (PI4P5K). These PI5P4K enzymes therefore represent one way by which cells can regulate endogenous PI5P levels and play important roles in insulin signaling and in stress responses.
This proposal aims to identify and optimize specific modulators of human PI5P4K, phosphatidylinositol-5-phosphate 4-kinase (Type II PIPK), a family of kinases that regulate AKT signaling and tumor cell growth. In this project we aim to identify inhibitors of human PI5P4K using a quantitative high-throughput screening approach against the MLSMR containing ~400,000 small molecules.
NIH Chemical Genomics Center [NCGC]
NIH Molecular Libraries Probe Centers Network [MLPCN]
Assay Submitter (PI): Atsuo Sasaki, Beth Israel Deaconess Medical Center
2 microL of PI5P4Kalpha/substrate buffer (columns 1-2, 5-48) are dispensed into Greiner white solid bottom 1536-well assay plates; column 3 receives only PI5P4Kalpha buffer as 0x substrate controls; column 4 receives only substrate buffer as 0x PI5P4Kalpha controls. Final assay buffer consists of 0.038 M HEPES pH 7.4, 0.28 mM EGTA, 0.1% CHAPS, and 5% DMSO (final concentration). Compounds are then transferred via Kalypsys pin tool equipped with 1536-pin array (10 nL slotted pins, V&P Scientific, San Diego, CA). Following addition of compound, 1 microL of ATP (5 microM final concentration, all columns) is added to initiate the reaction. ATP is diluted in an assay buffer consisting of 0.02 M HEPES pH 7.4, 60 mM MgCl2, 15 microM ATP, and 0.1% CHAPS. The plates are then incubated at room temperature for 60 minutes. ADP-Glo reagent 1 is added (2 microL) and plates incubated for 45 minutes, before ADP-Glo reagent 2 (4 microL) is added and plates incubated for 30 minutes. They are then transferred to a ViewLux high-throughput CCD imager (PerkinElmer) wherein single end-point measurements of luminescence are acquired using a clear filter.
On the % scale 0 is the no-effect control and ±100 the full control effect.

Row | Structure (SMILES) | max response
1 | Cc1ccccc1C(=O)NCC1(N2CCCCC2)CCCCC1 | inactive: 1.11%
2 | CN(C)c1ccc(C(=O)NCC2(N(C)C)CCCCC2)cc1 | inactive: -7.98%
3 | CN(C)C1CCCC1OC(=O)C(O)(c1ccccc1)c1ccccc1 (stereo unspecified) | inactive: -11.8%
4 | C=CCN1CCN(CCOC(=O)C(O)(c2ccccc2)c2ccccc2)CC1 | inactive: 1.3%
5 | O=C(NCC1(N2CCCCC2)CCCCC1)c1cc(F)c(F)cc1Cl | inactive: 5.33%
6 | COc1ccc(C(=O)NCC2(N(C)C)CCCCC2)cc1 | inactive: 0.683%
7 | CCN1CCCC(OC(=O)C2(O)c3ccccc3C=Cc3ccccc32)C1 (stereo unspecified) | inactive: 10.8%
8 | Cc1cc(C(=O)NCC2(N3CCCCC3)CCCCC2)ccc1[N+](=O)[O-] | inactive: -0.162%
9 | O=C(NCC1(N2CCCCC2)CCCCC1)c1cccc(Br)c1 | inactive: -3.66%
10 | O=C(NCC1(N2CCCCC2)CCCCC1)c1cc([N+](=O)[O-])ccc1Cl | inactive: -28.9%
11 | CN1[C@@H]2CC[C@H]1CC(OC(=O)C(O)(c1ccccc1)c1ccccc1)C2 (stereo partly specified) | inactive: -6.8%
12 | CCN(CC)CC(C)C(C)OC(=O)C(O)(c1ccccc1)c1ccccc1 (stereo unspecified) | inactive: -18%
13 | COc1cc(SC)ccc1C(=O)NCC1(N(C)C)CCCCC1 | inactive: -1.55%
14 | CC(C)N1C(=O)CC2(CCN(CCOC(=O)C(O)(c3ccccc3)c3ccccc3)CC2)C1=O | inactive: 8.23%
15 | Cc1ccc(C(=O)NCC2(N3CCCCC3)CCCCC2)cc1 | inactive: -12.1%
16 | O=C(OC1CN2CCC1CC2)C(CO)(c1ccccc1)c1ccccc1 (stereo unspecified) | inactive: -5.95%
17 | C=C(C)C#CC(O)(C(=O)OC1CCN(C)CC1)c1ccccc1 (stereo unspecified) | inactive: -4.32%
18 | COc1ccc(Br)c(C(=O)NCC2(N3CCCCC3)CCCCC2)c1 | inactive: -3.75%
19 | CC(C)Oc1ccc(C(=O)NCC2(N(C)C)CCCCC2)cc1 | inactive: -5.74%
20 | O=C(OCCN1CCCC1)C(O)(c1ccccc1)c1ccccc1 | inactive: -0.485%
21 | CN(C)c1cccc(C(=O)NCC2(N(C)C)CCCCC2)c1 | inactive: -1.97%
22 | CN(C)C1(CNC(=O)c2ccc(Br)cc2)CCCCC1 | inactive: -1.34%
23 | COc1cc(C(=O)NCC2(N(C)C)CCCCC2)c([N+](=O)[O-])cc1OC | inactive: -5.29%
24 | COc1cccc(C(=O)NCC2(N3CCCCC3)CCCCC2)c1 | inactive: 0.512%
25 | COc1ccc(Cl)cc1C(=O)NCC1(N(C)C)CCCCC1 | inactive: -0.733%
26 | O=C(NCC1(N2CCCCC2)CCCCC1)c1cccc(Cl)c1 | inactive: 1.76%
